Key:
μ opioid receptors = μ opioid receptors (Rattus norvegicus, UniProt P33535); conditions: cited from earlier work
[1] = system: patients with major depressive disorder; assay: Phase 2a cardiodynamic ECG evaluation (concentration-QTc and by-time point analysis); type: in vivo, human; conditions: linear concentration-QTc analysis
[2] = 5 mg dose, immediate release, oral; cited from earlier work

Amino acid sequences for entries named in this document (tags omitted).
UniProt P33535, whole entry: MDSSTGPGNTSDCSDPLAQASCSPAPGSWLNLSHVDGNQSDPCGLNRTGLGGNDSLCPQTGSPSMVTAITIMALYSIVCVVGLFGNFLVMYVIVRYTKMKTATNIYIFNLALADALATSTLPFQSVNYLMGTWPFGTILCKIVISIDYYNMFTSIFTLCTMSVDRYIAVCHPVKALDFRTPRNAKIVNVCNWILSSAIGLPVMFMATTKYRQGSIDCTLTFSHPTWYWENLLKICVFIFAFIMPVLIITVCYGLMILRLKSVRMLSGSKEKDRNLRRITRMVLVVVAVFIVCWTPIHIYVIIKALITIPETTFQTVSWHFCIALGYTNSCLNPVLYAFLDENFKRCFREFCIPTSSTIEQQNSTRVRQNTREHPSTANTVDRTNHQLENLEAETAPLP

SMILES: CCC(=O)C(C[C@H](C)N(C)C)(c1ccccc1)c1ccccc1 [esmethadone]
- Lower affinity for μ opioid receptors with respect to levomethadone (μ opioid receptors): 20 fold
- Plasma concentration at which 90% UCI of ΔΔQTcF reaches 10 ms (10 ms Threshold) [1]: 0.3 µg/mL
- Cmax [2]: 0.0533 µg/mL

Reference: US20240122878A1 (published 2024)
